Values of other authors, collected in article PMC3438226 (Bioorganic & medicinal chemistry, 2012).

Target: T1, human MTAP (Homo sapiens, UniProt Q13126)
T1 sequence (Q13126 1-283): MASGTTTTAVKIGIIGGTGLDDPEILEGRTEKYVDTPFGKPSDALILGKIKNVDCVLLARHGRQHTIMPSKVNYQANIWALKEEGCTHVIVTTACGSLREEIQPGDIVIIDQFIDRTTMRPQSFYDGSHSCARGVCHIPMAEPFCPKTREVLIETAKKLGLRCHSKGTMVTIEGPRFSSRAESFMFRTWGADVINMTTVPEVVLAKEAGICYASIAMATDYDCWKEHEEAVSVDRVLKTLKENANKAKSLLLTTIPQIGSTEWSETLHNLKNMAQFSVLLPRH
Conditions: read-out: Ki* human MTAP; Ki* value; cited from earlier work

For “(1S)-1-(9-deazaadenin-9-yl)-1,4-dideoxy-1,4-imino-5-methylthio-D-ribitol [Compound 3]”, the Ki is given as 1 ± 0.5 nM.
